Results published in ChEMBL document CHEMBL1127385, “Synthesis and diuretic activity of alkyl- and arylguanidine analogs of N,N'-dicyclohexyl-4-morpholinecarboxamidine in rats and dogs” (J Med Chem, 1994).

Test system: Rattus norvegicus
Experiment: Ratio of Total electrolytic excretion of sodium and potassium in urine of rats after peroral administration of 0 uM/Kg of drug
Type: ADME, organism-based
Details: in vivo, po

Ratio: 2.7
Compound: NS(=O)(=O)c1cc(C(=O)O)c(NCc2ccco2)cc1Cl [FUROSEMIDE]
